Where a name gives a salt, the structure may show the parent alone.
What follows are molecules tested against hCRTH2 receptor (Homo sapiens (Human), UniProt Q9Y5Y4) (assay: hCRTH2 receptor membranes radioligand (3H-PGD2) displacement assay). Conditions: 3H-PGD2 radioligand displacement, HEK293-hCRTH2 membranes.
Type: binding
Protocol: Biological Assays: Preparation of hCRTH2 Receptor Membranes and Radioligand Displacement Assay:
First, recombinant HEK293-hCRTH2 cells were detached from culture plates into 5 ml buffer A/plate (Buffer A: 5 mM Tris, 1 mM MgCl2-6H2O pH=7.4) using a rubber policeman. Cells were then transferred into centrifugation tubes and centrifuged for 5 min at 400 g. The cell pellet was resuspended in the same buffer and tubes were frozen at −80° C. Cells were thawed and membrane fragments were generated by homogenization using a polytron homogenizer (30 seconds). The membrane fragments were then centrifuged at 3000 g for 20 minutes and resuspended in buffer C (Buffer C: 75 mM Tris, 25 mM MgCl2, 250 mM Saccharose pH 7.4). Aliquots of membrane fragments were stored at −20° C.
Binding assay was performed in a final assay volume of 250 μl. First, 25 μl of test compound, previously diluted in Binding-Buffer (Binding-Buffer: 50 mM Tris-Base, 100 mM NaCl, 1 mM EDTA, 0.1% BSA (protease free), 0.01% NaN3, 10 mM MnCl2, pH 7.0) was placed into each well. After addition of 75 μl Binding-Buffer, 50 μl of the radioligand ^3H-PGD2 (at 2.5 nM (220.000 dpm/well) from ANAWA ART0662) was added to each well. Binding assay was started by addition of 100 μl CRTH2 membrane fragments, reaching a final concentration of 20 μg/well. For non-specific binding, PGD2 was added to the reaction mixture to […] final concentration. This assay mix was incubated for 90 minutes at room temperature and then filtered through a GF/C filter 96-well plate which was pre-soaked for 3 hours in 0.5% polyethyleneimine (PEI). The filter-wells were washed three times with ice cold Binding-Buffer. Then, 40 μl of Microscint-40 (Packard) was added to each well and the retained radioactivity quantified in a Topcount (Packard).

Sequences of proteins named here, by UniProt entry; tags and fusion partners are left off. A change or cut given only in a name is not applied to a line headed by its entry.
UniProt Q9Y5Y4: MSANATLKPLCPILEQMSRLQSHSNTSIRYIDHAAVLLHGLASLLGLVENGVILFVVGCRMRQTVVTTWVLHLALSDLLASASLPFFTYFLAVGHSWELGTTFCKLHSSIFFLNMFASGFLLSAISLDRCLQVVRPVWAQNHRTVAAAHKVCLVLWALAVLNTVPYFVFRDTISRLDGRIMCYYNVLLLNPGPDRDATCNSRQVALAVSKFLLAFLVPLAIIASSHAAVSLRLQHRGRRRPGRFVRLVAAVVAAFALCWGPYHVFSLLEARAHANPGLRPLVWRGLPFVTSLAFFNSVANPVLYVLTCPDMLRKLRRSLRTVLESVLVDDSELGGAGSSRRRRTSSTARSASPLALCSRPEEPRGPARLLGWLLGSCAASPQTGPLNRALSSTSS

Structure (SMILES) | IC50 [nM]
COc1ccc(CC(=O)O)cc1-c1ccc(F)c2c1CN(C(=O)[C@@H]1C[C@H]1c1ccccc1)C2 (racemic) [Example 37, (±)-{3-[7-Fluoro-2-(trans-2-phenyl-cyclopropanecarbonyl)-2,3-dihydro-1H-isoindol-4-yl]-4-methoxy-phenyl}-acetic acid] | 7.54
COc1ccc(CC(=O)O)cc1-c1ccc(F)c2c1CN(C(=O)C1CC1(C)C)CC2 (racemic) [Example 55, (±)-{3-[2-(2,2-Dimethyl-cyclopropanecarbonyl)-5-fluoro-1,2,3,4-tetrahydro-isoquinolin-8-yl]-4-methoxy-phenyl}-acetic acid] | 45.7
COc1ccc(CC(=O)O)cc1-c1ccc(F)c2c1CN(C(=O)[C@@H]1C[C@H]1c1ccccc1C(F)(F)F)CC2 (racemic) [Example 95, (±)-(3-{5-Fluoro-2-[trans-2-(2-trifluoromethyl-phenyl)-cyclopropanecarbonyl]-1,2,3,4-tetrahydro-isoquinolin-8-yl}-4-methoxy-phenyl)-acetic acid] | 0.22
COc1ccc([C@@H]2C[C@H]2C(=O)N2CCc3c(F)ccc(-c4cc(CC(=O)O)ccc4OC)c3C2)cc1 (racemic) [Example 96, (±)-(3-{5-Fluoro-2-[trans-2-(4-methoxy-phenyl)-cyclopropanecarbonyl]-1,2,3,4-tetrahydro-isoquinolin-8-yl}-4-methoxy-phenyl)-acetic acid] | 21.2
COc1ccc(CC(=O)O)cc1-c1ccc(F)c2c1CN(C(=O)C1CC(=O)c3ccccc3C1)CC2 (racemic) [Example 114, (±)-{3-[5-Fluoro-2-(4-oxo-1,2,3,4-tetrahydro-naphthalene-2-carbonyl)-1,2,3,4-tetrahydro-isoquinolin-8-yl]-4-methoxy-phenyl}-acetic acid] | 21.2
COc1ccc(CC(=O)O)cc1-c1ccc(F)c2c1CN(C(=O)C1Cc3ccccc31)CC2 (racemic) [Example 116, (±)-{3-[2-(Bicyclo[4.2.0]octa-1(6),2,4-triene-7-carbonyl)-5-fluoro-1,2,3,4-tetrahydro-isoquinolin-8-yl]-4-methoxy-phenyl}-acetic acid] | 211
COc1ccc(CC(=O)O)cc1-c1ccc(F)c2c1CN(C(=O)C1CCc3ccccc3C1)CC2 (racemic) [Example 123, (±)-{3-[5-Fluoro-2-(1,2,3,4-tetrahydro-naphthalene-2-carbonyl)-1,2,3,4-tetrahydro-isoquinolin-8-yl]-4-methoxy-phenyl}-acetic acid] | 37.7
COc1ccc(CC(=O)O)cc1-c1ccc(F)c2c1CN(C(=O)CC1CC(C)(C)Oc3ccccc31)CC2 (racemic) [Example 240] | 3.6
COc1cccc(C(C)CC(=O)N2CCc3c(F)ccc(-c4cc(CC(=O)O)ccc4OC)c3C2)n1 (racemic) [Example 248, hydrochloride] | 77.9
COc1ccc(CC(=O)O)cc1-c1ccc(F)c2c1CN(C(=O)CC(C)c1cccc(C)n1)CC2 (racemic) [Example 249, hydrochloride] | 40.4
CC(C)Oc1ccc(CC(=O)O)cc1-c1ccc(F)c2c1CN(C(=O)CC1COCc3ccccc31)CC2 (racemic) [Example 296] | 0.8
Cc1cccc(C(C)CC(=O)N2CCc3c(F)ccc(-c4cc(CC(=O)O)ccc4OCC(F)(F)F)c3C2)n1 (racemic) [Example 303] | 6.6
CCOc1cc(CC(=O)O)ccc1-c1ccc(F)c2c1CN(C(=O)CC(c1ccccn1)C1CC1)CC2 (racemic) [Example 319] | 36.3
CCOc1cc(CC(=O)O)ccc1-c1ccc(F)c2c1CN(C(=O)[C@@H]1C[C@H]1c1ccccn1)CC2 (racemic) [Example 322] | 1.3
CCOc1ccc(CC(=O)O)cc1-c1ccc(F)c2c1CN(C(=O)CC1CC(C)(C)Oc3ccccc31)CC2 (racemic) [Example 331] | 9.6
CCOc1ccc(CC(=O)O)cc1-c1ccc(F)c2c1CN(C(=O)CC1(C)CCCc3ccccc31)CC2 (racemic) [Example 334] | 10.2
COc1ccc(CC(=O)O)cc1-c1ccc(F)c2c1CN(C(=O)[C@@H]1C[C@H]1c1ccccn1)CC2 (racemic) [Example 361] | 2.2
CCOc1ccc(CC(=O)O)cc1-c1ccc(F)c2c1CN(C(=O)OCC1CCCO1)CC2 (racemic) [Example 384] | 14.8
COc1ccc(CC(=O)O)cc1-c1ccc(F)c2c1CN(C(=O)[C@@H]1C[C@H]1c1cccc(F)c1)CC2 [Example 65, (3-{5-Fluoro-2-[(1R,2R)-2-(3-fluoro-phenyl)-cyclopropanecarbonyl]-1,2,3,4-tetrahydro-isoquinolin-8-yl}-4-methoxy-phenyl)-acetic acid] | 1.85
COc1cc(CC(=O)O)ccc1-c1ccc(F)c2c1CN(C(=O)CC1CCOc3ccccc31)CC2 (stereo not drawn) [Example 200, {4-[2-(2-Chroman-4-yl-acetyl)-5-fluoro-1,2,3,4-tetrahydro-isoquinolin-8-yl]-3-methoxy-phenyl}-acetic acid] | 8
COc1cc(CC(=O)O)ccc1-c1ccc(F)c2c1CN(C(=O)CC1CCOc3ccccc31)CC2 (stereo not drawn) [Example 201, {4-[2-(2-Chroman-4-yl-acetyl)-5-fluoro-1,2,3,4-tetrahydro-isoquinolin-8-yl]-3-methoxy-phenyl}-acetic acid] | 9.5
CCOc1ccc(CC(=O)O)cc1-c1ccc(F)c2c1CN(C(=O)CC1COc3ccccc31)CC2 (stereo not drawn) [Example 207, {3-[2-(2-2,3-Dihydro-benzofuran-3-yl-acetyl)-5-fluoro-1,2,3,4-tetrahydro-isoquinolin-8-yl]-4-ethoxy-phenyl}-acetic acid] | 1.4
CCOc1ccc(CC(=O)O)cc1-c1ccc(F)c2c1CN(C(=O)CC1COc3ccccc31)CC2 (stereo not drawn) [Example 208, {3-[2-(2-2,3-Dihydro-benzofuran-3-yl-acetyl)-5-fluoro-1,2,3,4-tetrahydro-isoquinolin-8-yl]-4-ethoxy-phenyl}-acetic acid] | 1.6
CCOc1ccc(CC(=O)O)cc1-c1ccc(F)c2c1CN(C(=O)CC1COCc3ccccc31)CC2 (stereo not drawn) [Example 209, {4-Ethoxy-3-[5-fluoro-2-(2-isochroman-4-yl-acetyl)-1,2,3,4-tetrahydro-isoquinolin-8-yl]-phenyl}-acetic acid] | 3.4
